Test results as given in article PMC5164944 (Biochemical pharmacology, 2016).

Assay: Interconversion of bupropion enantiomers in HLM incubations
Format: in vitro ADME, human
Settings: 5 minutes, 37°C

C[C@@H](NC(C)(C)C)C(=O)c1cccc(Cl)c1 [R-Bupropion, R-bupropion, reference compound]
interconversion of S- and R-bupropion in the incubations: < 5%

C[C@H](NC(C)(C)C)C(=O)c1cccc(Cl)c1 [S-Bupropion, S-bupropion, reference compound]
interconversion of S- and R-bupropion in the incubations: < 5%
